Our source for the growth rescue (activation) values is PubChem BioAssay AID652104 (National Center for Advancing Translational Sciences (NCATS), 2013).

The entries are a selection whose mix differs from that of the whole data set. Records with an inconclusive call do not appear. The source made the active and inactive calls. Calls follow the shape of the dose curve; as a rule, active = well fitted activation curve with a large enough effect; inconclusive = small, poorly fitted or top-dose-only effect, or another doubt; inactive = no such curve, though single readings can be large or run the other way.

The assay is described as follows: qHTS of TDP-43 Inhibitors. Also: % of control where 0% means no effect; nearly all actives have a fitted effect of over 50% in size. Conditions: TDP-43 expressing yeast growth rescue, BacTiter-Glo, 24 h; at 46.1 µM (top of the series). From the text:
The goal of this project is to identify new chemical probes capable of reversing the toxicity associated with TDP-43 which is associated with frontotemporal lobar degeneration and amyotrophic lateral sclerosis. These compounds will provide a complementary approach to deciphering the tangled mechanisms of toxicity and protection that we have uncovered through genome-wide genetic screens and are beginning to uncover in a large-scale proteomics analysis with mass spectroscopy.
To this end, a miniaturized assay was developed to be screened against the Molecular Libraries Small Molecule Repository (MLSMR) to discover TDP-43 inhibitors. Please note that in the set-up this yeast-based assay compounds that inhibit as TDP-43, have a read-out as activators.
NIH Chemical Genomics Center [NCGC]
NIH Molecular Libraries Probe Centers Network [MLPCN]
Assay Submitter (PI): Susan Lindquist, Whitehead Institute/MIT
Dispense 2.5 microL yeast galactose medium per 1536-well plate, pin compound, dispense 2.5 microL TDP-43 expressing yeast in galactose medium at OD600=0.02 (pregrown in raffinose medium to mid-log phase) per well, incubate for 24 hr at 30 deg C, and cell growth will be measured using 5 microL of Bactiter/Glo reagent to entire plate and read using Luminescence Protocol in ViewLux.
On to `COc1ccc(CC(C)NCC(O)c2ccc(O)c(NC=O)c2)cc1` (stereo unspecified), for which the growth rescue (activation) was inactive: 17.4%.
